# Antibody variant affinities, Ab-95 light chain, assay 2

Antigen: PDVDLGDISGINAS, a 14-residue peptide of the SARS-CoV-2 spike HR2 region.

Parent: Ab-95, a human scFv built as VH, a (GGGGS)3 linker, VL. Only the CDRs of the light chain vary.
VH: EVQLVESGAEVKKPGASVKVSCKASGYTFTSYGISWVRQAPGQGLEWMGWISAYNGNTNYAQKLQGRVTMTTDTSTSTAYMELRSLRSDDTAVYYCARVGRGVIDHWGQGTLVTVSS
VL: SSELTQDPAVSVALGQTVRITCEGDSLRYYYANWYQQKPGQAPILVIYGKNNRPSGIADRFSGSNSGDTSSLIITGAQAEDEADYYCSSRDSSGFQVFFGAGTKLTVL

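The starting antibody came from a phage panning campaign against this peptide. In library AAYL52, one, two or three CDR residues were substituted; doubles and triples were drawn at random. The assay is AlphaSeq: two haploid yeast populations carry antibody and antigen on their surface. Mating (16 h, 30 °C) was followed by selection of diploids and sequencing of their barcodes. A regression on co-assayed BCL2-family reference pairs converts the normalised counts of each replicate to an apparent Kd. Each pool was mated in three replicate cultures.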

Changes read parent residue, position, new residue, counted from the first residue of the VL shown. Affinities are written as log10 Kd with Kd in nM; a lower number is a better binder. A pair that was not seen in that replicate is written "ND"; this usually means weak binding, but a binder can also be missed. Empty control strains, which show no peptide, gave a signal in 28% of pairings with library AAYL52; the median was 3.91 and 95% of these signals were weaker than 2.90. No background was subtracted. For each scFv, signals with the empty controls are counted beside the result, with their mean in brackets.

changes | log10 Kd, replicates | control signals
P54I+S89T+V97G | 3.44 / ND / 4.01 | 3 of 9 (4.77)
R28Q+F95I | 2.85 / 3.56 / 2.71 | 4 of 9 (3.85)
E23G+Y29E+N52I | 2.13 / 2.05 / 1.83 | 5 of 9 (4.14)
N52C+P54F+F95I | 4.58 / ND / ND | 2 of 9 (3.48)
E23A+Y29V+S93D | ND / 3.67 / 3.79 | 2 of 9 (4.17)
R28D+S55W | 3.00 / 2.98 / 4.33 | 2 of 9 (3.82)
R28F+N52T | ND / 3.22 / 2.92 | 2 of 9 (3.77)
G49N+N52G+G94M | ND / 2.46 / ND | 3 of 9 (3.96)
S92K+S93T | 3.25 / 2.75 / 2.19 | 2 of 9 (3.35)
E23N+P54N+R90Y | 3.22 / ND / 3.17 | 2 of 9 (4.39)
Y31S+R90Q+Q96L | 1.89 / 2.13 / 1.55 | 4 of 9 (3.74)
S93Y+V97G | 2.75 / 3.00 / 2.44 | 6 of 9 (3.64)
D25L+S89T | 3.43 / 3.40 / 2.76 | 2 of 9 (3.98)
G24D+S88M+R90Q | 2.45 / 1.87 / 1.59 | 0 of 9
G49H+S88C+S93C | ND / ND / 3.35 | 2 of 9 (3.41)
E23C+G49L+F95N | 4.00 / ND / ND | 0 of 9
G24D+S55Q+S92A | 3.24 / 3.23 / ND | 1 of 9 (3.31)
G49H+N51T+S88Y | ND / ND / ND | 1 of 9 (3.93)
S55Q+D91S+S93G | 2.80 / 2.04 / 2.27 | 4 of 9 (3.82)
E23R+N52W+S93F | 4.69 / 4.11 / 4.46 | 3 of 9 (4.15)
L27C+Y31D+S92I | 2.95 / 2.41 / 2.37 | 4 of 9 (3.84)
R28V+R53G+F98K | 3.06 / ND / ND | 1 of 9 (3.37)
R28E+G49A+R90M | ND / 3.72 / 4.03 | 0 of 9
G24E+S26M+S92M | 4.16 / ND / ND | 4 of 9 (4.87)
L27M+S88N+G94R | ND / ND / ND | 1 of 9 (4.93)
S89W+F95E | 2.83 / 2.66 / 2.13 | 5 of 9 (4.45)
S26W+Y30S+S93T | 1.17 / 1.15 / 0.65 | 5 of 9 (4.73)
R28W+Y29I+S92H | ND / ND / ND | 0 of 9
Y29K+Y31W+A32S | 4.68 / 3.91 / 2.98 | 2 of 9 (3.78)
K50N+N51R+P54W | ND / 3.01 / ND | 1 of 9 (4.08)
L27N+A32C+G49C | 3.11 / 2.67 / 2.85 | 5 of 9 (4.52)
Y30I+R90H+D91K | 3.40 / 3.37 / 2.18 | 4 of 9 (4.16)
N52T+S93C+F98A | 5.59 / ND / ND | 1 of 9 (4.15)
L27W+N51D+F95W | ND / 4.10 / ND | 4 of 9 (3.82)
D91H+G94F+F98T | 3.31 / 3.32 / 3.40 | 3 of 9 (4.29)
L27R+Y30M+Y31L | 2.89 / 2.54 / 2.42 | 2 of 9 (3.37)
Y29Q+R90H+F95R | 3.56 / 2.79 / 3.99 | 1 of 9 (4.34)
G24M+S26A+F98R | 4.58 / 3.01 / 4.42 | 3 of 9 (4.17)
S88Y+S92I+G94I | 2.46 / 2.02 / 2.66 | 2 of 9 (4.46)
P54V+R90V+D91T | ND / 2.71 / 3.71 | 0 of 9
D25G+K50R | 2.81 / 2.59 / 1.88 | 5 of 9 (3.51)
G24M+S92D+S93K | 5.27 / ND / 4.42 | 4 of 9 (4.20)
P54Q | 2.82 / 1.79 / 1.65 | 3 of 9 (4.05)
Y31L+S89T | 2.19 / 1.95 / 2.18 | 1 of 9 (4.10)
S26W+N51K+F95V | ND / ND / 4.28 | 2 of 9 (3.51)
Y31C+N52W+S92W | 3.36 / 3.11 / 2.50 | 5 of 9 (3.59)
G24T+N51L+D91Q | ND / ND / ND | 2 of 9 (3.93)
G24L+D25P+G94C | 4.29 / 4.81 / 4.13 | 2 of 9 (4.28)
S93M+F98I | 3.26 / 3.50 / 3.16 | 4 of 9 (4.08)
D25E+L27E+R28S | ND / 2.40 / ND | 0 of 9
Y30T+G49M+S88R | ND / ND / ND | 1 of 9 (3.35)

The measurements come from Engelhart et al. 2022 (doi:10.1038/s41597-022-01779-4) through the FLAb antibody collection.